Experimental findings from patent US10543199B2, “Macrocycle and composition comprising thereof” (Shenzhen TargetRx, Inc., priority 2016, dated 2020) are described below.

A short description of data set [1]: Metabolic stability in human liver microsomes. In kind it is in vitro ADME. The conditions noted are these: human liver microsomes 0.5 mg/mL, compound 1 μM. As for the experimental part:
(§1) Metabolic Experiment of Liver Microparticle.
(§2) Experiments in microsomes: Human liver microsomes: 0.5 mg/mL, Xenotech; Rat liver microsomes: 0.5 mg/mL, Xenotech; Coenzyme (NADPH/NADH): 1 mM, Sigma Life Science; Magnesium chloride: 5 mM, 100 mM phosphate buffer (pH 7.4).
(§3) Preparation of stock solution: Powder of the example compound 2-8 was accurately weighed and dissolved in DMSO to 5 mM.
(§4) Preparation of phosphate buffer (100 mM, pH7.4): A pre-formulated 0.5M potassium dihydrogen phosphate (150 mL) was mixed with 0.5M dibasic potassium phosphate (700 mL). The pH of the mixture was adjusted to 7.4 with 0.5M dibasic potassium phosphate solution. The mixture was diluted 5-fold with ultrapure water before use, and magnesium chloride was added to obtain a phosphate buffer (100 mM) containing 100 mM potassium phosphate, 3.3 mM magnesium chloride, pH 7.4.
(§5) A NADPH regeneration system solution (containing 6.5 mM NADP, 16.5 mM G-6-P, 3 U/mL G-6-PD, 3.3 mM magnesium chloride) was prepared and placed on wet ice prior to use.
(§6) Preparation of stop solution: acetonitrile solution containing 50 ng/mL propranolol hydrochloride and 200 ng/mL tolbutamide (internal standard). 25057.5 μL of phosphate buffer (pH 7.4) was taken into a 50 mL centrifuge tube, to which 812.5 μL human liver microsomes were added, and mixed to obtain a liver microsome dilution solution with a protein concentration of 0.625 mg/mL. 25057.5 μL of phosphate buffer (pH 7.4) was taken into a 50 mL centrifuge tube, to which 812.5 μL SD rat liver microsomes were added, and mixed to obtain a liver microsome dilution solution with a protein concentration of 0.625 mg/mL.
(§7) Incubation of the samples: The stock solution of the respective compound was respectively diluted to 0.25 mM with an aqueous solution containing 70% acetonitrile, and used as a working solution, ready for use. 398 μL of the dilution solution of human liver microsomes or rat liver microsome were added to a 96-well incubation plate (N=2), respectively, and 2 μL of 0.25 mM working solution was added and mixed.
(§8) Metabolic stability assay: 300 μL of pre-chilled stop solution was added to each well of a 96-well deep well plate and placed on ice as a stop plate. The 96 well incubation plate and NADPH regeneration system were placed in a 37° C. water bath box, shaken at 100 rpm and pre-incubated for 5 min. 80 μL of incubation solution was taken out from each well of the incubation plate and added to the stop plate, mixed, and replenished with 20 μL of NADPH regeneration system solution as a 0-min sample. 80 μL of NADPH regeneration system solution was added to each well of the incubation plate to start the reaction and start counting. […] Separately, 100 μL of the reaction solution was taken at 10, 30, and 90 min reaction, respectively, added to a stop plate, and vortexed for 3 minutes to terminate the reaction. The stop plate was centrifuged at 5000×g at 4° C. for 4 min. 100 μL of the supernatant was added to a 96-well plate to which 100 μL of distilled water was previously added, mixed, and analyzed by LC-MS/MS.
(§9) Data analysis: The peak areas of the corresponding compound and internal standard were detected by LC-MS/MS system, and the ratio of the peak area of the compound to the internal standard was calculated.

Data set [2] in a line: Metabolic stability in rat liver microsomes. The note with it: rat liver microsomes 0.5 mg/mL, compound 1 μM. In kind it is in vitro ADME, SD rat. As for the experimental part:
as §1, §2, §3, §4, §5, §6, §7, §8, §9

Bounds are passed on as bounds.

With `[2H]C1([2H])c2nn(C)c(C#N)c2-c2cnc(N)c(c2)OC(C)c2cc(F)ccc2C(=O)N1C` (racemic) [Compound 72], in data set [1], the “CLint” value was under 9.6 µL/min/mg and the “t1/2” value is recorded as over 145 min. Further, in data set [2], the “CLint” value was under 9.6 µL/min/mg and the “t1/2” value was 145 min.
Take `[2H]C([2H])([2H])C1([2H])Oc2cc(cnc2N)-c2c(nn(C)c2C#N)CN(C)C(=O)c2ccc(F)cc21` (stereo not drawn) [Compound 45]: in data set [1], the “CLint” value is under 9.6 µL/min/mg and the “t1/2” value is over 145 min. In data set [2], the “CLint” value is under 9.6 µL/min/mg and the “t1/2” value was determined as 145 min.
Take `C[C@H]1Oc2cc(cnc2N)-c2c(nn(C)c2C#N)CN(C)C(=O)c2ccc(F)cc21` [PF-06463922, reference compound]: in data set [2], the “CLint” value is under 9.6 µL/min/mg and the “t1/2” value came out at 145 min.
In the case of `[2H]C([2H])([2H])n1nc2c(c1C#N)-c1cnc(N)c(c1)OC([2H])(C([2H])([2H])[2H])c1cc(F)ccc1C(=O)N(C)C2` (stereo not drawn) [Compound 76], the “CLint” value in data set [1] and in data set [2] was under 9.6 µL/min/mg each time. For the same molecule, the “t1/2” value in data set [1] was over 145 min; in data set [2], 145 min.
Turning to `[2H]C([2H])([2H])N1Cc2nn(C)c(C#N)c2-c2cnc(N)c(c2)OC(C)c2cc(F)ccc2C1=O` (stereo not drawn) [Compound 18], the “CLint” value in data set [1] and in data set [2] was under 9.6 µL/min/mg throughout. The “t1/2” value in data set [1] was over 145 min; in data set [2], 145 min.
In the case of `[2H]C([2H])([2H])N1Cc2nn(C([2H])([2H])[2H])c(C#N)c2-c2cnc(N)c(c2)OC(C)c2cc(F)ccc2C1=O` (stereo not drawn) [Compound 58], the “CLint” value in data set [1] and in data set [2] was under 9.6 µL/min/mg in each case. The “t1/2” value is over 145 min in data set [1] and 145 min in data set [2].
With `[2H]C([2H])([2H])n1nc2c(c1C#N)-c1cnc(N)c(c1)OC(C)c1cc(F)ccc1C(=O)N(C)C2` (stereo not drawn) [Compound 28], in data set [2], the “CLint” value is under 9.6 µL/min/mg and the “t1/2” value came out at 145 min.
